#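 These data come from cells grown in 96-well plates and exposed to compound for 48 hours at five concentrations. Here, GI50 denotes the concentration required for 50% inhibition of growth. TGI denotes the concentration required for complete inhibition of growth.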
# Key:
# Test in all cases: NCI tumour cell line growth inhibition, 48 h
# RPMI-8226 leukemia = system: RPMI-8226 leukemia
# UACC-257 melanoma = system: UACC-257 melanoma
# U251 CNS = system: U251 CNS
# OVCAR-4 ovarian = system: OVCAR-4 ovarian
# SF-295 CNS = system: SF-295 CNS
# SN12C renal = system: SN12C renal
# NCI-H522 lung = system: NCI-H522 lung
# UO-31 renal = system: UO-31 renal
# NCI-H322M lung = system: NCI-H322M lung
# SR leukemia = system: SR leukemia
# LOX IMVI melanoma = system: LOX IMVI melanoma
# MDA-MB-435 = system: MDA-MB-435
# IGROV1 ovarian = system: IGROV1 ovarian
# HCT-116 colon = system: HCT-116 colon
# PC-3 prostate = system: PC-3 prostate
# SF-268 CNS = system: SF-268 CNS
# A498 renal = system: A498 renal
# RXF 393 renal = system: RXF 393 renal
# HT29 colon = system: HT29 colon
# KM12 colon = system: KM12 colon
# SK-MEL-2 melanoma = system: SK-MEL-2 melanoma
# NCI/ADR-RES ovarian = system: NCI/ADR-RES ovarian
# UACC-62 melanoma = system: UACC-62 melanoma
# T-47D breast = system: T-47D breast
# HL-60(TB) leukemia = system: HL-60(TB) leukemia
# MCF7 breast = system: MCF7 breast
# COLO 205 colon = system: COLO 205 colon
# SNB-19 CNS = system: SNB-19 CNS
# MALME-3M melanoma = system: MALME-3M melanoma
smiles,measurement,setting,value
CCN(CC)[P+](c1ccc(OC)cc1OC)(N(CC)CC)N(CC)CC,GI50,RPMI-8226 leukemia,0.946 µM
same,TGI,RPMI-8226 leukemia,> 100 µM
same,GI50,UACC-257 melanoma,0.744 µM
same,TGI,UACC-257 melanoma,7.1 µM
same,GI50,U251 CNS,1.95 µM
same,TGI,U251 CNS,> 100 µM
same,GI50,OVCAR-4 ovarian,2.96 µM
same,TGI,OVCAR-4 ovarian,> 100 µM
same,GI50,SF-295 CNS,3.27 µM
same,TGI,SF-295 CNS,28.3 µM
same,GI50,SN12C renal,2.87 µM
same,TGI,SN12C renal,> 100 µM
same,GI50,NCI-H522 lung,2.23 µM
same,TGI,NCI-H522 lung,12.4 µM
same,GI50,UO-31 renal,19.1 µM
same,TGI,UO-31 renal,83.9 µM
same,GI50,NCI-H322M lung,6.87 µM
same,TGI,NCI-H322M lung,89 µM
same,GI50,SR leukemia,4.25 µM
same,TGI,SR leukemia,> 100 µM
same,GI50,LOX IMVI melanoma,2.2 µM
same,TGI,LOX IMVI melanoma,6.05 µM
same,GI50,MDA-MB-435,1.53 µM
same,TGI,MDA-MB-435,19.1 µM
same,GI50,IGROV1 ovarian,2.79 µM
same,TGI,IGROV1 ovarian,33.6 µM
same,GI50,HCT-116 colon,2.4 µM
same,TGI,HCT-116 colon,> 100 µM
same,GI50,PC-3 prostate,0.855 µM
same,TGI,PC-3 prostate,16.3 µM
same,GI50,SF-268 CNS,4.19 µM
same,TGI,SF-268 CNS,> 100 µM
same,GI50,A498 renal,1.63 µM
same,TGI,A498 renal,8.28 µM
same,GI50,RXF 393 renal,10.4 µM
same,TGI,RXF 393 renal,> 100 µM
same,GI50,HT29 colon,2.65 µM
same,TGI,HT29 colon,16.4 µM
same,GI50,KM12 colon,1.43 µM
same,TGI,KM12 colon,18.6 µM
same,GI50,SK-MEL-2 melanoma,2.62 µM
same,TGI,SK-MEL-2 melanoma,8.24 µM
same,GI50,NCI/ADR-RES ovarian,> 100 µM
same,TGI,NCI/ADR-RES ovarian,> 100 µM
same,GI50,UACC-62 melanoma,1.7 µM
same,TGI,UACC-62 melanoma,21.3 µM
same,GI50,T-47D breast,1.01 µM
same,TGI,T-47D breast,> 100 µM
same,GI50,HL-60(TB) leukemia,0.833 µM
same,TGI,HL-60(TB) leukemia,6.13 µM
same,GI50,MCF7 breast,0.861 µM
same,TGI,MCF7 breast,> 100 µM
same,GI50,COLO 205 colon,1.15 µM
same,TGI,COLO 205 colon,2.74 µM
same,GI50,SNB-19 CNS,2.94 µM
same,TGI,SNB-19 CNS,> 100 µM
same,GI50,MALME-3M melanoma,3.13 µM
same,TGI,MALME-3M melanoma,70.6 µM

# Reference: PubChem BioAssay (NCI)
